Assay results: PMC9250534, “Synthesis and direct assay of large macrocycle diversities by combinatorial late-stage modification at picomole scale” (Nature Communications, 2022)
Several values for one entry are separate records, joined by “and”; a condition that tells them apart may be missing. Identical values can stand only once. Like-named read-outs stand apart in the source and are kept apart here.

Chains of the proteins cited; added tags and fusions are not shown.
UniProt Q00987, whole entry: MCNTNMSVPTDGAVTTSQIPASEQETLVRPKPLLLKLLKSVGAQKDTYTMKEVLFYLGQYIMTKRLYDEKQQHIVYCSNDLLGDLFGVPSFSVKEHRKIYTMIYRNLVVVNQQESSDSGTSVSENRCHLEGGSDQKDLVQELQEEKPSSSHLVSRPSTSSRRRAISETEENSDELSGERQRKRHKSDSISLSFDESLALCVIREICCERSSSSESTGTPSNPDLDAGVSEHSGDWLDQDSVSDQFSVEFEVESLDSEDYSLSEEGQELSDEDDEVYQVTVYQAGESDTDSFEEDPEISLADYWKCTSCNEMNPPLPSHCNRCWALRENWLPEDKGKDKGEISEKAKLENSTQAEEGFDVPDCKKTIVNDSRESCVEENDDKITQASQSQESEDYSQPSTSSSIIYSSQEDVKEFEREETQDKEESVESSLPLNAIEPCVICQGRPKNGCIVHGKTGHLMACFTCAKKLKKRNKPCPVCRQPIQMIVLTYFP

How the values were obtained:
MDM2 = MDM2 (Homo sapiens, UniProt Q00987); assay: Kd of fluorescein-labeled macrocycles for MDM2 by direct fluorescence polarization; assay type: binding
thrombin = thrombin (Homo sapiens, UniProt P00734); assay: Determination of Kis of purified thrombin inhibitors (IC50, Cheng-Prusoff)
[1] = Log[MDM2] M -5.4, replicates 1-3
[2] = Log[MDM2] M -5.7, replicates 1-3
[3] = Log[MDM2] M -5.9, replicates 4-5
[4] = Log[MDM2] M -6.0, replicates 1-3
[5] = Log[MDM2] M -6.2, replicates 4-5
[6] = Log[MDM2] M -6.3, replicates 1-3
[7] = Log[MDM2] M -6.5, replicates 4-5
[8] = Log[MDM2] M -6.6, replicates 1-3
[9] = Log[MDM2] M -6.8, replicates 4-5
[10] = Log[MDM2] M -6.9, replicates 1-3
[11] = Log[MDM2] M -7.1, replicates 4-5
[12] = Log[MDM2] M -7.2, replicates 1-3
[13] = Log[MDM2] M -7.4, replicates 4-5
[14] = Log[MDM2] M -7.5, replicates 1-3
[15] = Log[MDM2] M -7.7, replicates 4-5
[16] = Log[MDM2] M -7.8, replicates 1-3
[17] = Log[MDM2] M -8.0, replicates 4-5
[18] = Log[MDM2] M -8.1, replicates 1-3
[19] = Log[MDM2] M -8.3, replicates 4-5
[20] = Log[MDM2] M -8.4, replicates 1-3
[21] = Log[MDM2] M -8.6, replicates 4-5
[22] = Log[MDM2] M -8.9, replicates 4-5
[23] = Log[MDM2] M -9.2, replicates 4-5
[24] = Log[MDM2] M -9.5, replicates 4-5
[25] = Log[MDM2] M -9.8, replicates 4-5
[26] = read-out: KD Replicate 1, FITC-labeled macrocycle, direct FP binding, replicate 1
[27] = read-out: KD Replicate 2, FITC-labeled macrocycle, direct FP binding, replicate 2
[28] = read-out: KD Replicate 3, FITC-labeled macrocycle, direct FP binding, replicate 3
[29] = read-out: KD Replicate 4, FITC-labeled macrocycle, direct FP binding, replicate 4
[30] = read-out: KD Replicate5, FITC-labeled macrocycle, direct FP binding, replicate 5
[31] = read-out: Kd MDM2, direct FP assay, fluorescein-labeled (conjugated) macrocycle, mean ± SD of three independent measurements
[32] = Log[MDM2] M -5.6, replicates 4-5

Compound	anisotropy (MDM2; [2])	anisotropy (MDM2; [4])	anisotropy (MDM2; [5])	anisotropy (MDM2; [6])	anisotropy (MDM2; [7])	anisotropy (MDM2; [8])	anisotropy (MDM2; [9])	anisotropy (MDM2; [10])	anisotropy (MDM2; [11])	anisotropy (MDM2; [12])	anisotropy (MDM2; [13])	anisotropy (MDM2; [14])	anisotropy (MDM2; [15])	anisotropy (MDM2; [16])	anisotropy (MDM2; [17])	anisotropy (MDM2; [18])	anisotropy (MDM2; [19])	anisotropy (MDM2; [20])	anisotropy (MDM2; [21])	anisotropy (MDM2; [22])	further results
O=C(COCCOCCNC(=O)c1ccc2c(c1)C(=O)OC21c2ccc(O)cc2Oc2cc(O)ccc21)NC1CSSCCNC(=O)C(Cc2c[nH]c3ccccc23)NC(=O)C(CNC(=O)c2ccc(Cl)s2)NC(=O)C2CCCN(C2)C1=O (centres unmarked)	192 and 189 and 188	153 and 155 and 164	156 and 153	117 and 124 and 126	110 and 118	90 and 95 and 101	62 and 54	63 and 76 and 75	44 and 48	58 and 60 and 69	51 and 58	50 and 48 and 55	55 and 46	41 and 48 and 49	43 and 45	43 and 42 and 47	48 and 52	41 and 40 and 43	42 and 40	52 and 49	anisotropy (MDM2; [1]): 206 and 210 and 209; anisotropy (MDM2; [3]): 208 and 202; anisotropy (MDM2; [23]): 46 and 51; anisotropy (MDM2; [24]): 44 and 45; anisotropy (MDM2; [25]): 44 and 48; Kd (MDM2; [26]): 0.65 µM; Kd (MDM2; [27]): 0.69 µM; Kd (MDM2; [28]): 0.62 µM; Kd (MDM2; [29]): 0.6 µM; Kd (MDM2; [30]): 0.59 µM; Kd (MDM2; [31]): 0.63 µM
O=C(C=Cc1ccccc1)NCC1NC(=O)C2CCCN(C2)C(=O)C(NC(=O)COCCOCCNC(=O)c2ccc3c(c2)C(=O)OC32c3ccc(O)cc3Oc3cc(O)ccc32)CSSCCNC(=O)C(Cc2c[nH]c3ccccc23)NC1=O (centres unmarked)	207 (2×) and 208	182 and 174 and 187	195 and 199	145 and 146 and 158	159	117 and 110 and 118	108	92 and 87 and 84	75	64 (2×) and 76	64 and 58	48 and 57 and 63	55 and 57	41 and 42 and 56	53 and 49	37 and 39 and 40	53 and 49	36 and 39 (2×)	44 and 46	46 and 49	anisotropy (MDM2; [32]): 257 and 256; anisotropy (MDM2; [23]): 51 and 43; anisotropy (MDM2; [24]): 48 and 52; anisotropy (MDM2; [25]): 39 and 41; Kd (MDM2; [26]): 0.36 µM; Kd (MDM2; [27]): 0.44 µM; Kd (MDM2; [28]): 0.39 µM; Kd (MDM2; [29]): 0.36 µM; Kd (MDM2; [30]): 0.33 µM; Kd (MDM2; [31]): 0.37 µM and 0.38 µM
CC(C)[C@H]1NC(=O)CCCSCCNC(=O)[C@H](CNC(=O)c2ccc(Cl)s2)NC(=O)c2cccc(c2)CNC1=O	–	–	–	–	–	–	–	–	–	–	–	–	–	–	–	–	–	–	–	–	IC50 (thrombin; read-out: IC50 (nM) Average, thrombin, average of 3 replicates): 175 nM; IC50 (thrombin; read-out: IC50 (nM) Replicate 1, thrombin, replicate 1): 152 nM; IC50 (thrombin; read-out: IC50 (nM) Replicate 2, thrombin, replicate 2): 194 nM; IC50 (thrombin; read-out: IC50 (nM) Replicate 3, thrombin, replicate 3): 180 nM; Ki (thrombin; read-out: Ki (nM) Replicate 1, thrombin, replicate 1): 117 nM; Ki (thrombin; read-out: Ki (nM) Replicate 2, thrombin, replicate 2): 150 nM; Ki (thrombin; read-out: Ki (nM) Replicate 3, thrombin, replicate 3): 139 nM; Ki (thrombin; read-out: Ki thrombin, purified macrocycle, mean ± SD of three independent measurements): 135 nM
O=C(COCCOCCNC(=O)c1ccc2c(c1)C(=O)OC21c2ccc(O)cc2Oc2cc(O)ccc21)NC1CSSCCNC(=O)C(Cc2c[nH]c3ccccc23)NC(=O)C(CNC(=O)c2ccc(Cl)cc2)NC(=O)C2CCCN(C2)C1=O (centres unmarked)	184 (2×) and 181	147 and 144 and 157	166 and 160	106 and 112 and 122	118 and 119	84 and 81 and 95	86 and 84	67 and 62 and 77	71 and 67	52 and 53 and 59	57 and 56	47 and 48 and 52	51 and 55	42 and 36 and 45	53 and 46	40 and 36 and 43	49 and 45	39 and 37 and 40	47 and 43	48 and 51	anisotropy (MDM2; Log[MDM2] M -4.5, replicates 1-3): 245 and 230 and 246; anisotropy (MDM2; Log[MDM2] M -4.8, replicates 1-3): 225 and 226 and 222; anisotropy (MDM2; Log[MDM2] M -5.1, replicates 1-3): 227 and 220 and 222; anisotropy (MDM2; [1]): 204 and 205 and 208; anisotropy (MDM2; [32]): 234 and 240; anisotropy (MDM2; [3]): 203 and 206; anisotropy (MDM2; [23]): 48 and 47; anisotropy (MDM2; [24]): 47 and 50; anisotropy (MDM2; [25]): 47 and 45; Kd (MDM2; [26]): 0.88 µM; Kd (MDM2; [27]): 0.76 µM; Kd (MDM2; [28]): 0.74 µM; Kd (MDM2; [29]): 0.58 µM; Kd (MDM2; [30]): 0.67 µM; Kd (MDM2; [31]): 0.73 µM
